The target of the test is GST-plakoglobin (UniProt P14923). The test is described as follows: pull-down; 10 pmols of GST-plakoglobin incubated with 500 µg of whole-cell extracts from MEFs PS (−/−) transfected with the PS1 forms; glutathione-Sepharose; Western blot with anti-PS1 (aa 1-65); three experiments scanned and quantified with respect to the input. Background: A western blot detects proteins with antibodies after separation by electrophoresis.

In turn, “non-processed presenilin 1 (Myc/His-tagged full-length human PS1) (from UniProt P49768 1-467) (natural protein; other documents disagree on this pair)” came in with a fold binding relative to pPS1 of 10 fold.

For the origin of these results see article PMC2603589.
